The target of the test is D-aminoacylase (Alcaligenes faecalis, UniProt Q9AGH8). The test can be described thus: Reagents (inhibitors) influencing the D-aminoacylase activities. It is filed as biochemical. Particulars: 1 mM inhibitor, 50 mM Tris-HCl pH 7.8, 30 minutes at 37° C., ninhydrin method.

The chains behind the UniProt entries cited, without tags or fusion partners. Residues count along the entry.
UniProt Q9AGH8, 1-484: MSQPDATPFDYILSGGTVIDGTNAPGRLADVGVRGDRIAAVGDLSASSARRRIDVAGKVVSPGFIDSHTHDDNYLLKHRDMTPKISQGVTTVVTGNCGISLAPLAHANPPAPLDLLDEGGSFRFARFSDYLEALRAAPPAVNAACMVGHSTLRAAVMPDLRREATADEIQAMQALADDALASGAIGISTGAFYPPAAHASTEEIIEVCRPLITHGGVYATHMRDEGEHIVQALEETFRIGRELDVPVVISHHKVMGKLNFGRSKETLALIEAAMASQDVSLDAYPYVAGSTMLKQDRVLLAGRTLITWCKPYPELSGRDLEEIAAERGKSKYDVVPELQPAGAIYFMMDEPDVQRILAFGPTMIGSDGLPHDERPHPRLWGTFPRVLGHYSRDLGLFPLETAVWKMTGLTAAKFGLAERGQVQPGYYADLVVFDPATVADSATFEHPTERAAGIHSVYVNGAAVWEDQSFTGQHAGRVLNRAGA

Consider `[N-]=[N+]=[N-]`, for which the Residual activities % was 97%.
